Data on one molecule can be found in paper PMC5742776 (Foods, 2017).

This assay concerns dipeptidyl peptidase-IV (DPP-IV; EC 3.4.14.5). The class given is biochemical. The conditions noted are these: positive control; 37 °C, 30 min; fluorescence 355/460 nm; triplicate.

In the case of `N[C@@H](CC(=O)N1CCn2c(nnc2C(F)(F)F)C1)Cc1cc(F)c(F)cc1F` [sitagliptin, reference compound], the “% DPP-IV inhibition” value is reported as 87.4 ± 4%.
